Data taken from article PMC5917010, “Structural basis for GPR40 allosteric agonism and incretin stimulation” (Nature Communications, 2018).

Protein sequences, listed by entry. Tags and fused reporters are not part of them.
UniProt Q76JU9, whole entry: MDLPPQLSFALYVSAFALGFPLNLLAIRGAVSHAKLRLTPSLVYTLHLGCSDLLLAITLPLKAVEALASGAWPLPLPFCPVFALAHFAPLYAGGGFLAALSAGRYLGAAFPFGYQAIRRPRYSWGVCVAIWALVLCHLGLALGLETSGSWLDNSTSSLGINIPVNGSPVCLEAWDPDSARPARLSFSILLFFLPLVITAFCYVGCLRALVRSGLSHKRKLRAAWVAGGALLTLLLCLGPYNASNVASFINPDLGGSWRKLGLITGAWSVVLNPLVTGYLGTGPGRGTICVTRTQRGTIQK

Molecular target: Mouse GPR40 (Mus musculus, UniProt Q76JU9)
Assay: Mouse GPR40 b-arrestin
Assay type: cell-based

Cc1cc(OCCCS(C)(=O)=O)cc(C)c1-c1cccc(COc2ccc3c(c2)OC[C@H]3CC(=O)O)c1 [TAK-875]
Emax: 117%
